Laboratory results: patent US12492232B2, “Methods for producing proteins” (South Australian Health and Medical Research Institute …, priority 2018, dated 2025)
Entries after “also recorded” stand apart in the source; their conditions may differ.

Columns and labels:
Format in all cases: cell-based
[1] = tested on: mTORC1 signalling; assay: mTORC1 signalling (Western blot, S6K1 and rpS6) in transfected CHO cells starved of serum and amino acids, with or without TSC1/2 co-transfection
From the text: FIGS. 1A-1B: Recombinant GST-Rheb proteins were subjected to GAP assay in the presence of FLAG-TSC1, FLAG-TSC2 and [α-^32P] GTP. GST-Rheb bound to GDP or GTP was pulled down using glutathione beads and the nucleotides were then separated by thin-layer chromatography and visualized by phosphorimager. The positions of GDP and GTP are shown (FIG. 1A). […] FIGS. 1C-1D: CHO cells were co-transfected using Lipofectamine 3000 with vectors encoding wildtype (WT) Rheb or the indicated mutants and TSC1/2 as indicated. 36 h after transfection, cells were transferred to Ham's F12 media lacking FBS for 16 h. Cells were the transferred to Dulbecco's phosphate-buffered saline (D-PBS, which lacks amino acids) for 1 h before cell lysates were harvested for SDS-PAGE and Western Blotting analysis using the indicated antibodies. […] This effect is consistent with lack of sensitivity of the mutant Rhebs to TSC1/TSC2. Thus the Rheb mutants S21L, T23M, G29S, Y35N and E40K promote mTORC1 signalling in the absence of upstream activation due to insensitivity to the GAP activity of the TSC complex.

[2] = tested on: CHO cells; assay: Growth of transfected CHO cells in medium with 10%, 1%, 0.5% or 0% FBS (cell counts over 7 days); settings: compared with Rheb-T23M
Experimental: CHO cells were seeded into 24-well plates at 5,000 cells/well. 24 h after seeding, cells were transfected using Lipofectamine3000 with an empty vector or vectors for Rheb WT, S21L, T23M, G29S, Y35N or E40K. 24 h after transfection, cells were transferred to medium containing 10%, 1%, 0.5% or 0% FBS as indicated. Every 24 h for 7 days, cells were trypsinized (from different dishes on each occasion) and counted on a haemocytometer. Growth medium was changed every 2 days. […] This effect may be highly advantageous for the propagation of CHO cells under industrial conditions in defined or minimal media.
CHO cells were seeded into 24-well plates at 5,000 cells/well. 24 h after seeding, cells were transfected using Lipofectamine3000 with an empty pcDNA3.1 vector or vectors for FLAG-tagged Rheb WT, S21L, T23M, G29S, Y35N or E40K. 24 h after transfection, cells were transferred to media (Ham's F12 from Life Technologies, Cat. No. 11765054) containing 10%, 1%, 0.5% or 0% foetal bovine serum, as indicated. Cells were trypsinized and counted on a haemocytometer every 24 h for 7 days. Growth medium was changed every 2 days.

[3] = tested on: mTORC1 localisation at the lysosome; assay: Immunofluorescence of mTOR and LAMP1 colocalisation in serum-starved transfected CHO cells; settings: medium lacking FBS for 16 h
Experimental: CHO-K1 cells were seeded in chamber slides at a density of 50,000 cells/slide 24 h prior to transfection via Lipofectamine3000 with an empty vector or vector for Rheb-WT, T23M, Y35N or E40K. 24 h after transfection cells were transferred to medium lacking FBS for 16 hours. Cells were fixed with 4% paraformaldehyde, permeabilized with 0.05% Triton X-100, blocked with 10% normal donkey serum before LAMP1 and then anti-mTOR antibodies were applied overnight. Alexa Fluor™ 488 and 594-labelled secondary antibodies were applied before cells were mounted and stained with DAPI.
CHO cells were seeded into chamber slides at a density of 50,000 cells/slide 24 h prior to transfection via Lipofectamine3000 with an empty pcDNA3.1 vector or Rheb-WT, T23M, Y35N or E40K. 24 h after transfection cells were transferred to medium lacking FBS for 16 h. Cells were fixed with 4% paraformaldehyde, permeabilized with 0.05% Triton X-100, blocked with 10% normal donkey serum before LAMP1 and mTOR antibodies were applied overnight. Alexa Fluor™ 488 and 594 secondary antibodies were applied before cells were mounted and stained with DAPI.

With “Rheb-WT: wildtype human Rheb (Ras homologue enriched in brain) protein, UniProtKB Q15382, SEQ ID NO. 2 [reference compound]” the “mTORC1 signalling in the absence of upstream activation” value ([1]; no serum 16 h, D-PBS 1 h, compared to empty vector and Rheb-WT) was “maintained mTORC1 signalling”, the “mTORC1 signalling when co-transfected with TSC1/TSC2” value ([1]; no serum and amino acids, co-transfected with TSC1/TSC2) was “mTORC1 signalling was suppressed” and the “effect in promoting cell proliferation under serum-deficient conditions” value [2] was “far smaller effect”. The “mTOR localisation to the lysosome (overlap with LAMP1)” value [3] was “little overlap of the proteins; also recorded: little observed overlap of the signals”.
